Values of other authors, collected in article PMC11413788, “The heterobivalent (SSTR2/albumin) radioligand [^67Cu]Cu-NODAGA-cLAB4-TATE enables efficient somatostatin receptor radionuclide theranostics” (Theranostics, 2024).

Molecular target: SSTR2
Parameters: method as in PMID 25060207
Conditions: membrane preparations of gene-modified human HTC116-SSTR2+ cells; cited from earlier work

With `C[C@@H](O)[C@H](NC(=O)[C@@H]1CSSC[C@H](NC(=O)[C@@H](Cc2ccccc2)NC(=O)CCC(C(=O)O)N2CCN(CC(=O)O)CCN(CC(=O)O)CC2)C(=O)N[C@@H](Cc2ccc(O)cc2)C(=O)N[C@H](Cc2c[nH]c3ccccc23)C(=O)N[C@@H](CCCCN)C(=O)N[C@@H]([C@@H](C)O)C(=O)N1)C(=O)O` (stereo partly shown) [[^64Cu]Cu‑NODAGA-TATE, metal not drawn] as the compound, how does the Kd read?
Its Kd is 0.5 nM.
